{"source": "patent US6375927B1", "about": "“Methods of radiotherapy using biomodulators” (priority 1991, dated 2002)", "test_system": "B-16 melanoma cells", "test": "Biodistribution: uptake of 99mTc-PWM versus 99mTc-HSA", "type": "in vivo, Mice", "description": "Mice were injected with B-16 melanoma cells 7 days prior to intravenous injection of ^99mTc-PWM or ^99mTc-HSA (human serum albumin). Biodistribution studies were performed 2 and 4 hours later. At 2 hours post injection, the absolute percent uptake into the tumor was 0.41% for Tc-PWM, and 0.36% for Tc-HSA. At four hours post injection, the absolute uptake decreased to 0.25% of the injected dose for both agents.", "data": [{"substance": "Tc-HSA: 99mTc-labeled human serum albumin, non-specific imaging agent", "values": [{"measurement": "Visualization of the tumor", "setting": "B-16 melanoma mice", "result": "not observed"}, {"measurement": "absolute uptake into the tumor, of the injected dose", "setting": "mouse, in vivo, iv", "result": 0.25, "unit": "%"}]}]}
